In ChEMBL document CHEMBL1125664, “Quaternary salts of 2-[(hydroxyimino)methyl]imidazole. 4. Effect of various side-chain substituents on therapeutic activity against anticholinesterase intoxication” (1991) one finds Survival data, which are given here for 20 compounds.

The target in the test is T1, Acetylcholinesterase (Mus musculus) (UniProt P21836).
T1 sequence (whole entry): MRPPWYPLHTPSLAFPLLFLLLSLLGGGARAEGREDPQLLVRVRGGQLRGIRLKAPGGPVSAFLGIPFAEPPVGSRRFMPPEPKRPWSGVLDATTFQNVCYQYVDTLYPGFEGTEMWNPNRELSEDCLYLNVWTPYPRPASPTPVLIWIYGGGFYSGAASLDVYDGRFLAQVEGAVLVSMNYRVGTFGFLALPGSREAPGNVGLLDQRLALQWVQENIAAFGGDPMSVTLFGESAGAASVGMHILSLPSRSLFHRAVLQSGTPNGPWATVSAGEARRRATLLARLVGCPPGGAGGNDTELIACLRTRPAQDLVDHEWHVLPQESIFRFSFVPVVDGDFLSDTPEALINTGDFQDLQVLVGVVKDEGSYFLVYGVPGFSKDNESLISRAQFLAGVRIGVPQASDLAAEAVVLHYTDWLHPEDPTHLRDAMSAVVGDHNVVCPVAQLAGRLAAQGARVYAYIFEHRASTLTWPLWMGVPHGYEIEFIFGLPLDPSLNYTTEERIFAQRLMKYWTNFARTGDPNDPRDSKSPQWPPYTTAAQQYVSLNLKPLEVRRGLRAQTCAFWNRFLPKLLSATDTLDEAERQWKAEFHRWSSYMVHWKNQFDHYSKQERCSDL
Description: Antidotal activity measured against soman in mice and activity expressed as the no. of survivors noted at 24 hr out of population of 10 mice each exposed intramuscularly at the dose 1/4 of 2LD50 of the compound.

`C[n+]1ccn(COCCCBr)c1/C=N/O` showed a Survival of 4.
The figure for `C[n+]1ccn(COCC(C)(C)CBr)c1/C=N/O` is 4; for `C[n+]1ccn(COCC[N+](=O)[O-])c1/C=N/O` it is 2.
Compound `CN(C)CCn1cc[n+](C)c1/C=N/O` gave a Survival of 10.
With `C[n+]1ccn(CCCCOC(=O)c2ccccc2O)c1/C=N/O`, the Survival is 2.
In the case of `C[n+]1ccn(CCCCC#N)c1/C=N/O` it was 1; in that of `CN(CCn1cc[n+](C)c1/C=N/O)S(=O)(=O)C(F)(F)F`, 6; in that of `CN(CCn1cc[n+](C)c1/C=N/O)S(=O)(=O)c1ccccc1`, 8.
Compound `C[n+]1ccn(CCS(C)(=O)=O)c1/C=N/O` showed a Survival of 9.
For `C[n+]1ccn(CC[N+](=O)[O-])c1/C=N/O`, the Survival came out at 2.
In the case of `COC(=O)CCCCCn1cc[n+](C)c1/C=N/O` it was 0; in that of `C#CCCOC[n+]1ccn(C)c1/C=N/O`, 10; in that of `COCCOCn1cc[n+](C)c1/C=N/O`, 4.
In the case of `C[n+]1ccn(CCOCCF)c1/C=N/O` it was 9.
Consider `C[n+]1ccn(COCCCCCl)c1/C=N/O`, for which the Survival was found to be 0.
In turn, `C[n+]1ccn(CCBr)c1/C=N/O` displayed a Survival of 0.
As for `C[n+]1ccn(COCC[Si](C)(C)C)c1/C=N/O`, the Survival was 1.
For the compound `C[n+]1ccn(COCCC[Si](C)(C)C)c1/C=N/O`, the Survival was found to be 0.
Compound `C[n+]1ccn(CCOCCCl)c1/C=N/O` showed a Survival of 8.
In the case of `C[n+]1ccn(CCF)c1/C=N/O` it was 1.
